Reference: patent US5192525A (Board of Regents, The University of Texas System, priority 1991, dated 1993)

Sequences of proteins named here, by UniProt entry; tags and fusion partners are left off.
UniProt Q29040, whole entry: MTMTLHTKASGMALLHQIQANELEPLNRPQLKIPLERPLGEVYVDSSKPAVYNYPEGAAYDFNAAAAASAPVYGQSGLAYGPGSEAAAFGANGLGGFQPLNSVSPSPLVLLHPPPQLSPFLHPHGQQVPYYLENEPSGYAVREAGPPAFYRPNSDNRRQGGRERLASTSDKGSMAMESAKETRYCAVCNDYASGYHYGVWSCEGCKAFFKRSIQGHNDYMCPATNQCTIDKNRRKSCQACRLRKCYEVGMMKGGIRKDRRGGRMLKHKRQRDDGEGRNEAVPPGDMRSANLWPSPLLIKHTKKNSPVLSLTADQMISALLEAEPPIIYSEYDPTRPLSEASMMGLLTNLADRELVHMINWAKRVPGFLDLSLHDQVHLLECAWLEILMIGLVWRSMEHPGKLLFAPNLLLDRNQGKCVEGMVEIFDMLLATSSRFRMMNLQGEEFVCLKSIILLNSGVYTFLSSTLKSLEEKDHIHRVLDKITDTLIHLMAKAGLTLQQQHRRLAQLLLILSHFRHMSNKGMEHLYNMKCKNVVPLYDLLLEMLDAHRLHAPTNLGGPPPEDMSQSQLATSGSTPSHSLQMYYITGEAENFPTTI

Biological target: T1, estrogen receptor (Sus scrofa, UniProt Q29040)
T1 construct: uteri (90 gm) were obtained from immature domestic swine (15 kg); from tissue; host or cells: uterus cytosol (100,000 g supernatant, charcoal-treated) of immature domestic swine
Assay: [3H]estradiol saturation / Scatchard analysis in pig uterus
Type: binding

Question: Which Hill coefficient does the source give for `C[C@]12CC[C@@H]3c4ccc(O)cc4CC[C@H]3[C@@H]1CC[C@@H]2O` [[^3 H]estradiol] here?
Answer: 0.982
